Our source for the Ki values is patent US5409946A, “Isoxazole, isothiazole and pyrazole compounds that enhance cognitive function” (Abbott Laboratories, priority 1993, dated 1995).

This assay deals with muscarinic receptors. The class given is binding, rat. As to conditions: Table 2. How it is done:
The potencies of ligand binding at central muscarinic binding sites were determined by analysis of competition with the specific muscarinic receptor radioligand [^3 H]-quinuclidinyl benzilate ([^3 H]-QNB). […] Competition between various concentrations of putative nicotinic ligand compounds and 0.2 nM [^3 H]-QNB was performed at 25° C. in an assay volume of 1 mL. After 75 minutes, the bound radioligand was separated by vacuum filtration on Whatman GF/B glass fiber filters. Non-specific binding was defined as radioactivity remaining in the presence of 10 μM atropine. Competition curves were analyzed for Ki values as described above for binding to the nicotinic receptor.

Usually Ki stands for the equilibrium dissociation constant of an inhibitor or competing ligand from its target. A low value points to higher affinity. Molecule `CN1CCCC1c1cccnc1` (single isomer, unassigned; (-)) [(-)-Nicotine] had a Ki of 587 µM.
